# Target: 5-hydroxytryptamine receptor 1A (Rattus norvegicus, UniProt P19327)
# Protein sequences, listed by entry. Tags and fused reporters are not part of them.
# UniProt P19327, whole entry: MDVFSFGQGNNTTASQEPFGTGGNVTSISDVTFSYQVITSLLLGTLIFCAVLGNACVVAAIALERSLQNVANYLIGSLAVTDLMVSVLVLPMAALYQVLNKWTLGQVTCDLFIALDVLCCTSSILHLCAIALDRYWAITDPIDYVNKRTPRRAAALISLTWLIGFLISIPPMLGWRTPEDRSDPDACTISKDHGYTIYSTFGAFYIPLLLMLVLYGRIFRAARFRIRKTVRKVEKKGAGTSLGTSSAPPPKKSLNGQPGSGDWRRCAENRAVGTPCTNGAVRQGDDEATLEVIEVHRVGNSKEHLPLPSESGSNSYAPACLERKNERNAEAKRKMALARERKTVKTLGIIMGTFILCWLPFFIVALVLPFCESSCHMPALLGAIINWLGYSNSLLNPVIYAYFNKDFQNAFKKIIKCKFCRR
# Experiment: Compound was evaluated for its binding affinity against 5-hydroxytryptamine 1A receptor from rat cerebral cortex
# Format: tissue-based
row,SMILES,Ki [µM]
1,CN1CCN(Cc2cccc(C(=O)N3CCCCC3)c2)CC1,> 1
2,COCCN1CCN(Cc2cccc(C(=O)N3CCCCCC3)c2)CC1,> 1

# From ChEMBL document CHEMBL1131239, “Orally active benzamide antipsychotic agents with affinity for dopamine D2, serotonin 5-HT1A, and adrenergic alpha1 receptors” (J Med Chem, 1998)
